Common to all, as to assay: FOREST: bead pull-down of RNA structure library v1, barcode microarray; U1A/LIN28A: 20 mM HEPES pH 7.5, 80 mM KCl, 20 mM NaCl, 10% glycerol, 2 mM DTT, 0.1 ug/uL BSA, 4 C; BG4/CIRBP/DHX36: 10 mM Tris-HCl pH 7.5, 100 mM KCl (or LiCl),; high values mean tight binding
One assay addresses U1A (Homo sapiens, UniProt P09012).
The next assay has as its target T1, LIN28A (human?, UniProt Q9H9Z2 1-209).
T1 sequence: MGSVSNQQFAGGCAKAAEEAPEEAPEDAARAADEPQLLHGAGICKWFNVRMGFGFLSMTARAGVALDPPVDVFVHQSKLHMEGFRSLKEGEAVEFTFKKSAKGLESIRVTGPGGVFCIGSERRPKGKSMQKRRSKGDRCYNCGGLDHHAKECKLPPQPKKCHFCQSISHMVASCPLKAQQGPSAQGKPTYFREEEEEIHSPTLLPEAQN

Another assay has as its target T2, CIRBP (Homo sapiens, UniProt Q14011 1-172).
T2 sequence: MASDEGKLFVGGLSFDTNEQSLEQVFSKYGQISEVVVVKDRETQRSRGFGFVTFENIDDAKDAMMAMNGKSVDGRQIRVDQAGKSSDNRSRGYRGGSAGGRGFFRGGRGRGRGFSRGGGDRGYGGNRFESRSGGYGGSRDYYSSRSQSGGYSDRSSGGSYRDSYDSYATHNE

Another assay deals with T3, DHX36 (Homo sapiens, UniProt Q9H2U1 1-1008).
T3 sequence: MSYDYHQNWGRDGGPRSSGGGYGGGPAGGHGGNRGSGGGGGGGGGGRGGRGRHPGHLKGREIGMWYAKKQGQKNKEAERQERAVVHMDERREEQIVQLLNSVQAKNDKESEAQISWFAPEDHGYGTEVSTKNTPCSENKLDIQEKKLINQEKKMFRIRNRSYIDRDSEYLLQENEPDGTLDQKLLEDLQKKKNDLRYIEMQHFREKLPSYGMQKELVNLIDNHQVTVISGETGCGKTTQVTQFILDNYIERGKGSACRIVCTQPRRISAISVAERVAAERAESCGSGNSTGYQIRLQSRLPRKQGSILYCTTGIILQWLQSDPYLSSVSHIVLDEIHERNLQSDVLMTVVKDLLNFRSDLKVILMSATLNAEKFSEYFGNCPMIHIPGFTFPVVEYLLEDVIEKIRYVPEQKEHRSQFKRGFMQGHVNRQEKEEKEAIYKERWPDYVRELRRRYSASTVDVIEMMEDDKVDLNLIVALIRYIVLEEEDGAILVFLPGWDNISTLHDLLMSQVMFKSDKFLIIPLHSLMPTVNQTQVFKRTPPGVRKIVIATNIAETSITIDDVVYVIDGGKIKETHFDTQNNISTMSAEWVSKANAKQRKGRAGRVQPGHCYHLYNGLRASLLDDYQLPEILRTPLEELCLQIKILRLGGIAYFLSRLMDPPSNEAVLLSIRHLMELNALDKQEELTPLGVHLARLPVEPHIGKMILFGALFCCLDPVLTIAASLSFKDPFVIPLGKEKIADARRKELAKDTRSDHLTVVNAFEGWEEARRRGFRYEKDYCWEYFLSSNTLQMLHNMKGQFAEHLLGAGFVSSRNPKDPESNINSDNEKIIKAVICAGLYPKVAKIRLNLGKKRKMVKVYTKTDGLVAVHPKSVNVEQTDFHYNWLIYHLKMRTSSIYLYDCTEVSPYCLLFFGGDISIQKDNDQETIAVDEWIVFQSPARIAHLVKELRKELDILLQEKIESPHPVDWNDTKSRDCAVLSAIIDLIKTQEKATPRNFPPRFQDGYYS

Consider 22 molecules from PMC7723054.

This is one part of the list.

B1: hsa-mir-4506 (structured_RNA)
RNA: GGGAGAUGUAGCCGCGCUCACUGUUAGCGGUGUACGAAGUUUCAGCGGUUCAAGUUUGGCUCCAUCUUUAUGAAAGCUGAAGCUUCGUGCAC
Take B1: the binding signal with U1A is 0.511 z-score; in the assay with LIN28A it was 1.85 z-score; with CIRBP it was 0.217 z-score; with DHX36 it was -0.448 z-score.

B2: hsa-mir-4761 (structured_RNA)
RNA: GGGAAGUAGUACCGCGGAUAUAAUAGUCGGUGUACGAAGUUUCAGCCUGACCCGUUGUCAGACCUGGAAAAAGGGCCGGCUGUGGGCAGGGAGGGCUGAAGCUUCGUGCAC
On to B2, for which the binding signal with U1A stood at 0.49 z-score; with LIN28A, 1.7 z-score; in the assay with CIRBP, 2.17 z-score; with DHX36, 1.43 z-score.

B3: hsa-mir-4537 (structured_RNA)
RNA: GGGAAAGUAUACUCCGUGCGUUCCCGUUGGUGUACGAAGUUUCAGCGCUGGGCUGAGCUAACCAGGGCUGGGCUGAGCGCUGAAGCUUCGUGCAC
Take B3: the binding signal in the assay with U1A was 0.524 z-score; with LIN28A, -2 z-score; with CIRBP, -0.941 z-score; in the assay with DHX36 it was -0.933 z-score.

B4: hsa-mir-3679 (structured_RNA)
RNA: GGGACAGCGUCGCAUGUACCAGAAUCAAGGUGUACGAAGUUUCAGCGAAGGGGAGUUUCCCUCUAUUCCCUUCGCUGAAGCUUCGUGCAC
As for B4, the binding signal is 0.505 z-score with U1A, -0.325 z-score with LIN28A, -0.493 z-score with CIRBP and -0.0906 z-score in the assay with DHX36.

B5: hsa-mir-4281 (structured_RNA)
RNA: GGGAAGGCCAGUACUGUGCUAGACAGCAGGUGUACGAAGUUUCAGCAGCUGGGGCCGGGUGCUGAAGCUUCGUGCAC
Consider B5, for which the binding signal is 0.505 z-score in the assay with U1A, -1.53 z-score in the assay with LIN28A, -0.878 z-score with CIRBP and -0.12 z-score in the assay with DHX36.

B6: hsa-mir-6809 (structured_RNA)
RNA: GGGAACCACGUUGACCCGGUAUGAAAUCGGUGUACGAAGUUUCAGCGGAUCAUGUUUGCCCCCGUGGACAGCUCUCUGGUGUGCUCCUCCUGCCAUCCUGCCCACCCCUGCAUAAUGCUGCUUCGCUGAAGCUUCGUGCAC
Take B6: the binding signal is 0.516 z-score in the assay with U1A, -0.0398 z-score with LIN28A, -0.91 z-score with CIRBP and 0.431 z-score in the assay with DHX36.

B7: hsa-mir-429 (structured_RNA)
RNA: GGGAAAGGAGGCGCGUCUAAUAAAGAAAGGUGUACGAAGUUUCAGCGUUAGACCUGGCCCUCUGUCUAAUGCUGAAGCUUCGUGCAC
As to B7, the binding signal with U1A is 0.501 z-score; with LIN28A, 0.511 z-score; in the assay with CIRBP it was 1.18 z-score; with DHX36 it was 2.69 z-score.

B8: hsa-mir-4265 (structured_RNA)
RNA: GGGAAAUCGGCUAAGGUGAUAUCCAACCGGUGUACGAAGUUUCAGCACACCUGUAAAGAAUUGGUCAGCCUGGGGACUGGUGAUCUCUGCAGCUGUGCUGAAGCUUCGUGCAC
On to B8, for which the binding signal with U1A was 2.13 z-score; in the assay with LIN28A it was 0.87 z-score; in the assay with CIRBP, 0.373 z-score; with DHX36, -0.508 z-score.

B9: hsa-mir-5009 (structured_RNA)
RNA: GGGAAUCACAUCACGGUGAAGAGUUAUUGGUGUACGAAGUUUCAGCGGGAUAUUUGCAUUAUACUUAUCCGCUGAAGCUUCGUGCAC
Regarding B9, the binding signal in the assay with U1A is 0.49 z-score; in the assay with LIN28A, 2.28 z-score; in the assay with CIRBP it was 2.32 z-score; with DHX36 it was 0.212 z-score.

B10: hsa-mir-378f (structured_RNA)
RNA: GGGAGGUUUGCAGUAAACUAACGAGGACGGUGUACGAAGUUUCAGCCAGGCUGCUAAACAACAGAACGAGCACUGGCUGAAGCUUCGUGCAC
As to B10, the binding signal turned out to be 0.52 z-score in the assay with U1A, 0.747 z-score in the assay with LIN28A, 1.12 z-score with CIRBP and 1.07 z-score with DHX36.

B11: hsa-mir-3157 (structured_RNA)
RNA: GGGAUUAAUGAACGGGUCGUCCGCAACGGGUGUACGAAGUUUCAGCGCAGUCUGCUUUGUGCCAACACUGGGGUGAUGACUGCGCUGAAGCUUCGUGCAC
Take B11: the binding signal in the assay with U1A is 2.12 z-score; in the assay with LIN28A it was 0.284 z-score; with CIRBP, -0.352 z-score; with DHX36 it was 0.341 z-score.

B12: hsa-mir-6775 (structured_RNA)
RNA: GGGACGGGAACUUAGCUUUUCGACGCCCGGUGUACGAAGUUUCAGCGGCUGGACAGGAGAGGGCUCACCCAGGGCUGAAGCUUCGUGCAC
With B12, the binding signal with U1A was 0.51 z-score; in the assay with LIN28A, 0.606 z-score; with CIRBP it was -0.79 z-score; with DHX36, 1.98 z-score.

B13: hsa-mir-425 (structured_RNA)
RNA: GGGACGGGAGCACUGGCAGAUACUUAACGGUGUACGAAGUUUCAGCCGUUGAGUGGGCACCCGAGAAGCCAUCGGCUGAAGCUUCGUGCAC
Turning to B13, the binding signal in the assay with U1A is 0.509 z-score; in the assay with LIN28A, 0.298 z-score; in the assay with CIRBP, -0.207 z-score; in the assay with DHX36, -0.152 z-score.

B14: hsa-mir-1825 (structured_RNA)
RNA: GGGAAUUCAUAAAGAUAGGUGCAGUCGGGGUGUACGAAGUUUCAGCUGGGCUCCCCUAGACUAGGACUCCAGCUGAAGCUUCGUGCAC
As to B14, the binding signal with U1A was 0.497 z-score; with LIN28A, -0.132 z-score; with CIRBP, -0.322 z-score; with DHX36, 0.0117 z-score.

B15: hsa-mir-609 (structured_RNA)
RNA: GGGAUCCGAGUAGUGCAGCUACCUGCAGGGUGUACGAAGUUUCAGCCUCUGGUCUAUAAUGGGUUAAAUAGUAGAGGCUGAAGCUUCGUGCAC
For the molecule B15, the binding signal is 0.524 z-score with U1A, 1.84 z-score in the assay with LIN28A, -1.12 z-score with CIRBP and 0.274 z-score in the assay with DHX36.

B16: hsa-mir-4655 (structured_RNA)
RNA: GGGACAUGGAAGGUCGAAUAAUACCGGCGGUGUACGAAGUUUCAGCGGGUCGUGGGAAAGUGUUGACCCGCUGAAGCUUCGUGCAC
For the molecule B16, the binding signal with U1A was 0.525 z-score; with LIN28A, 2.45 z-score; in the assay with CIRBP it was -0.695 z-score; with DHX36, 0.354 z-score.

B17: hsa-mir-6762 (structured_RNA)
RNA: GGGAACAAAAGACUGCCGAUGGGACCACGGUGUACGAAGUUUCAGCGCCUGUGUAGACGGGGACCUGCCCUGCAUGGGCACCCCCUCACUGGCGCUGAAGCUUCGUGCAC
On to B17, for which the binding signal in the assay with U1A was 0.519 z-score; with LIN28A, -0.819 z-score; in the assay with CIRBP it was -0.208 z-score; with DHX36 it was -0.384 z-score.

B18: NEAT1_ParasoR_ID26 (structured_RNA)
RNA: GGGAACACAGGGCUGCCAGAACAUAUCCGGUGUACGAAGUUUCAGCUGCAGCAUAUAACAGUACUGCGGCUGAAGCUUCGUGCAC
Take B18: the binding signal was 0.525 z-score with U1A, 1.21 z-score in the assay with LIN28A, 2.02 z-score with CIRBP and -0.189 z-score with DHX36.

B19: hsa-mir-4325 (structured_RNA)
RNA: GGGAAUACUGUGAACUGGAUUGAGCUUGGGUGUACGAAGUUUCAGCGUGAGAGAUGCUUCUAGAUCCAGGAGGCAGACCUCAAGCUGAAGCUUCGUGCAC
Regarding B19, the binding signal amounted to 0.524 z-score with U1A, 0.117 z-score with LIN28A, 0.038 z-score in the assay with CIRBP and 0.0492 z-score in the assay with DHX36.

B20: hsa-mir-3944 (structured_RNA)
RNA: GGGAAGUUUUGUCGGAACCCACUGCGCUGGUGUACGAAGUUUCAGCCGAGAAGCGCCUGCGUCUCCCAUUUUCGGCUGAAGCUUCGUGCAC
Take B20: the binding signal with U1A was 0.505 z-score; with LIN28A, -0.411 z-score; with CIRBP it was 0.324 z-score; with DHX36, 0.251 z-score.

B21: hsa-mir-3180-5 (structured_RNA)
RNA: GGGACUCAUCCAGCAAUGUCACGUUAGGGGUGUACGAAGUUUCAGCGGAGGCCCCGCCCUGCUGCCGACCCUGUGGAGCGGAGGGUGAAGCCUCCGCUGAAGCUUCGUGCAC
Take B21: the binding signal was 0.527 z-score with U1A, -0.497 z-score with LIN28A, -1.42 z-score in the assay with CIRBP and 0.0464 z-score with DHX36.

B22: hsa-mir-301b (structured_RNA)
RNA: GGGAGAACUACUCGAAUCGGAUGUCAACGGUGUACGAAGUUUCAGCACUACUGUGCUCUGAGAAGCAGUGCUGAAGCUUCGUGCAC
Consider B22, for which the binding signal is 0.52 z-score with U1A, -0.0969 z-score with LIN28A, 0.264 z-score in the assay with CIRBP and 0.375 z-score with DHX36.
